Assay results published in PubChem BioAssay AID2777 (Johns Hopkins Ion Channel Center, 2010).
This is a selection; strong and weak results do not stand in their true shares. Active and inactive are the calls of the source.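 The calls were made as follows: active = rise or fall in signal beyond 3 SD of buffer-only wells in both replicate plates, either sign; inactive = the rest.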

Tested on: transient receptor potential cation channel C4 (TRPC4), mouse
Experiment: membrane potential change in TRPC4 cells – cell-based, HEK293 TRPC4/mu-opioid, membrane potential dye, selectivity assay for TRPC6 inhibitor project, confirmation (AID 2777);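 also: integrated kinetic ratio of fluorescence range over baseline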
Settings: membrane potential fluorescence, at 10 µM

SMILES | activity change, negative = inhibition
O=[N+]([O-])c1ccc(O)c(/C=N/Nc2ccc([N+](=O)[O-])cc2[N+](=O)[O-])c1 | active: -15.3%
CN1CCCC(OC(=O)C(c2ccccc2)c2ccccc2)C1 (stereo not drawn) | active: 2.23%
CCC1=CC2Cc3nc4ccc(Cl)cc4c(N)c3C(C1)C2 (stereo not drawn) | active: -28.5%
